Data from patent US10407381B2 (THE BOARD OF TRUSTEES OF THE UNIVERSITY OF ILLINOIS, priority 2015, dated 2019).

The chains behind the UniProt entries cited, without tags or fusion partners. Residues count along the entry.
UniProt P41595, whole entry: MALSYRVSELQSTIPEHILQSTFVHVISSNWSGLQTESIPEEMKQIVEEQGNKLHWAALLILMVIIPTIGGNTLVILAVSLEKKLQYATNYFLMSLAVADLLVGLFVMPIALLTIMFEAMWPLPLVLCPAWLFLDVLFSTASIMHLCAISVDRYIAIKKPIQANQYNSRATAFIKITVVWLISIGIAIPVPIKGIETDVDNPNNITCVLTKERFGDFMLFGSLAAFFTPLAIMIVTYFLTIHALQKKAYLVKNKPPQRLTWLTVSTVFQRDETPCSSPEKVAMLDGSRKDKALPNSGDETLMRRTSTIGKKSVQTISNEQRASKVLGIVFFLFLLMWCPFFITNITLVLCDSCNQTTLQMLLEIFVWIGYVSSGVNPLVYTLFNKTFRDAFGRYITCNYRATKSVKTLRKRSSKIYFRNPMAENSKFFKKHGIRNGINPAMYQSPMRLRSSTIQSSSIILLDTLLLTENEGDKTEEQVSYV
UniProt P28223, whole entry: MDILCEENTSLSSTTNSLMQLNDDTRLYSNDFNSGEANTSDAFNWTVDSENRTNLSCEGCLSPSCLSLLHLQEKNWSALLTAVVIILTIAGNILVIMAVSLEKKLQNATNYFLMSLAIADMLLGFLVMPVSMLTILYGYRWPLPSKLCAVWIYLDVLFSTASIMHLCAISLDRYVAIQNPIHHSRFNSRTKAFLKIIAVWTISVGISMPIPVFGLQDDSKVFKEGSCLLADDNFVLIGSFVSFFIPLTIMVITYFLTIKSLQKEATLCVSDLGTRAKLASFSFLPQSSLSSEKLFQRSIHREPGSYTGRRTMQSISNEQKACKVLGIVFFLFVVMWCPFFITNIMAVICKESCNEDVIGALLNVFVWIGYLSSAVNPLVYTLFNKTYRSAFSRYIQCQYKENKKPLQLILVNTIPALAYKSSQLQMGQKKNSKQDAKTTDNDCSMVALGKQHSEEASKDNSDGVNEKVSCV
UniProt P28335, 33-458: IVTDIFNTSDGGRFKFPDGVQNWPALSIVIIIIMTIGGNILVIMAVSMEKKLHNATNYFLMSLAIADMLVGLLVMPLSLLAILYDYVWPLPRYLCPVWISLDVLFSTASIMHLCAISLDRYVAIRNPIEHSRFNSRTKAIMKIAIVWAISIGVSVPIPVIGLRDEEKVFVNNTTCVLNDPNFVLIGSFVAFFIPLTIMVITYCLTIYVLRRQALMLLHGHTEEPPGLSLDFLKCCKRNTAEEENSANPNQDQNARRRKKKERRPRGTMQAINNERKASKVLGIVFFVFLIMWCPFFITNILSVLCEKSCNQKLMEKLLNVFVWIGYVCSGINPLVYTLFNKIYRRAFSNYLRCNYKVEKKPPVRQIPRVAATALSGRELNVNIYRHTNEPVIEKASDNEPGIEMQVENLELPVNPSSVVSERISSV

Columns and labels:
[1] = target: 5-HT2B (Homo sapiens, UniProt P41595); test: Calcium flux (FLIPR) assay, human 5-HT2B stably expressed in HEK-293 (Flp-In-293) cells
[2] = target: 5-HT2A (Homo sapiens, UniProt P28223); test: Calcium flux (FLIPR) assay, human 5-HT2A stably expressed in HEK-293 (Flp-In-293) cells
[3] = target: human 5-HT2C-INI (Homo sapiens, UniProt P28335); test: Calcium flux (FLIPR) assay, human 5-HT2C-INI stably expressed in HEK-293 (Flp-In-293) cells

| SMILES | Emax, % 5-HT 5-HT2B [1] | Emax, % 5-HT 5-HT2A [2] | Emax, % 5-HT 5-HT2C [3] |
| --- | --- | --- | --- |
| C=CCOc1cc(F)c(F)cc1C1CC1CN (single isomer, unassigned; (+)) [(+)-Example 44, (+)-(2-(2-(Allyloxy)-4,5-difluorophenyl)cyclopropyl)methanamine] | (35%) % 5-HT | (21%) % 5-HT | (97%) % 5-HT |
| C=CCOc1cc(F)c(F)cc1C1CC1CN (single isomer, unassigned; (-)) [(−)-Example 44, (−)-(2-(2-(Allyloxy)-4,5-difluorophenyl)cyclopropyl)methanamine] | – | (17%) % 5-HT | (94%) % 5-HT |
